Assay results: US20230331803A1, “CO-AGONISTS OF THE GLP-1 AND AMYLIN RECEPTORS” (priority 2020, published 2023)

Sequences of proteins named here, by UniProt entry; tags and fusion partners are left off. Residues count along the entry.
UniProt O60896, 24-148: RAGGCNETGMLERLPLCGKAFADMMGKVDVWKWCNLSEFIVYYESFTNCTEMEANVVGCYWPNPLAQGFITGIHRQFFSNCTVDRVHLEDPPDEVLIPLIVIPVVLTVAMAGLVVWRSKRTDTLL
UniProt P30988, 25-474: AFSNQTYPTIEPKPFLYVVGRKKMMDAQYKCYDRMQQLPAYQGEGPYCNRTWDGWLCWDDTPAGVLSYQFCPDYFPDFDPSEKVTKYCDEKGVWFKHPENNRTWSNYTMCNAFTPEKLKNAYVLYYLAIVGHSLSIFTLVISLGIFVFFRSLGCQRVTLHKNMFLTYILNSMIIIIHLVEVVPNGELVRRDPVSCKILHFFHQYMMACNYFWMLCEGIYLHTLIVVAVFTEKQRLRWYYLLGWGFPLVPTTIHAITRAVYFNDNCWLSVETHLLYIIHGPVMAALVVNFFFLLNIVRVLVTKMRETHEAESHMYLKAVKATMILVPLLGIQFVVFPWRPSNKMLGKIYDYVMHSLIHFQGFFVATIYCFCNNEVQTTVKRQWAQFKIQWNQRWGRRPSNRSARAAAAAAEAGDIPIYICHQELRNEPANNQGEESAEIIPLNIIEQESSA

Key:
[1] = biological target: T1, human amylin receptor (hAmyR3) (Homo sapiens, UniProt O60896+P30988); assay: Human amylin receptor in vitro potency assay (CRE-luciferase reporter, BHK cells); assay type: cell-based; details: Table 4b; reference and comparator compounds; read-out: Human AmyR3 potency [EC50 (pM)];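 further: BHK cells expressing human calcitonin receptor plus RAMP3 (amylin-3 receptor) with a CRE-luciferase reporter, agonist activity read as luminescence from cAMP-driven transcription, 7-point serial dilutions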
T1 construct: host or cells: BHK cells (Hollex-1 line: human calcitonin receptor (a) + CRE-Luc), further transfected with human RAMP3

[2] = in vivo; cited from earlier work

EC50 [1]: 7.8 pM
SMILES: CC[C@H](C)[C@H](NC(=O)[C@@H]1CCCN1C(=O)CNC(=O)[C@H](Cc1ccccc1)NC(=O)[C@H](CC(N)=O)NC(=O)[C@H](CC(N)=O)NC(=O)[C@H](CO)NC(=O)[C@H](CO)NC(=O)[C@H](Cc1c[nH]cn1)NC(=O)[C@@H](NC(=O)[C@H](CC(C)C)NC(=O)[C@H](Cc1ccccc1)NC(=O)[C@H](CC(N)=O)NC(=O)[C@H](C)NC(=O)[C@H](CC(C)C)NC(=O)[C@H](CCCNC(=N)N)NC(=O)[C@H](CCC(N)=O)NC(=O)[C@@H](NC(=O)[C@H](C)NC(=O)[C@@H]1CSSC[C@H](NC(=O)[C@@H](N)CCCCN)C(=O)N[C@@H](CC(N)=O)C(=O)N[C@@H]([C@@H](C)O)C(=O)N[C@@H](C)C(=O)N[C@@H]([C@@H](C)O)C(=O)N1)[C@@H](C)O)C(C)C)C(=O)N[C@@H](CC(C)C)C(=O)N1CCC[C@H]1C(=O)N1CCC[C@H]1C(=O)N[C@H](C(=O)N[C@@H](CC(N)=O)C(=O)N[C@H](C(=O)NCC(=O)N[C@@H](CO)C(=O)N[C@@H](CC(N)=O)C(=O)N[C@H](C(=O)N[C@@H](Cc1ccc(O)cc1)C(N)=O)[C@@H](C)O)C(C)C)[C@@H](C)O [Pramlintide, reference compound]
biological half-life [2]: less than 1 hour
